IC50 data for one compound are collected here from patent US20070155739A1, “Substituted bis-amide metalloprotease inhibitors” (ALANTOS PHARMACEUTICALS, INC., priority 2005, published 2007).

Each structure is given as a SMILES string.

The test has as its target MMP-13 (Homo sapiens, UniProt P45452). The experiment in a line: Assay for determining MMP-13 inhibition (fluorogenic substrate). The conditions noted are these: read-out: IC50 (nM), Summary of MMP-13 Activity for Compounds of Formula I; Table 1; tested form: TFA. Here is the method: The MMP-13 inhibiting activity of the bis-amide metalloprotease inhibiting compounds of the present invention may be measured using any suitable assay known in the art. A standard in vitro assay for MMP-13 inhibiting activity is described in Example 999 and a description of the microsomal stability assay is described in Example 999a.
Assay for Determining MMP-13 Inhibition
The typical assay for MMP-13 activity is carried out in assay buffer comprised of 50 mM Tris, pH 7.5, 150 mM NaCl, 5 mM CaCl2 and 0.05% Brij-35. Different concentrations of tested compounds are prepared in assay buffer in 50 μL aliquots. 10 μL of 40 nM stock solution of MMP-13 enzyme is added to the compound solution. The mixture of enzyme and compound in assay buffer is thoroughly mixed and incubated for 20 minutes at room temperature. Upon the completion of incubation, the assay is started by addition of 40 μL of 12.5 μM stock solution of MMP-13 fluorogenic substrate (Calbiochem Cat. No. 444235). The time-dependent increase in fluorescence is measured at the 325 nm excitation and 393 nm emission by automatic plate multireader. The IC50 values are calculated from the initial reaction rates. Selectivity assays were run in a similar manner using MMP-1, MMP-3, MMP-8, MMP-12, MMP-14 and TACE.

`C[C@H](NC(=O)c1cc(C(=O)NCc2ccc(F)cc2)ncn1)c1ccc(-c2nnn(CC(=O)O)n2)cc1`: the IC50 was under 1000 nM.

For orientation: IC50 means the point on the concentration scale where inhibition reaches its midpoint.
